The structures appear in SMILES notation. pIC50: −log10 of the molar value.

Protein sequences, listed by entry. Tags and fused reporters are not part of them. Lines headed by an entry give the natural chain unless they say otherwise; changes in a name come on top.
UniProt O42275: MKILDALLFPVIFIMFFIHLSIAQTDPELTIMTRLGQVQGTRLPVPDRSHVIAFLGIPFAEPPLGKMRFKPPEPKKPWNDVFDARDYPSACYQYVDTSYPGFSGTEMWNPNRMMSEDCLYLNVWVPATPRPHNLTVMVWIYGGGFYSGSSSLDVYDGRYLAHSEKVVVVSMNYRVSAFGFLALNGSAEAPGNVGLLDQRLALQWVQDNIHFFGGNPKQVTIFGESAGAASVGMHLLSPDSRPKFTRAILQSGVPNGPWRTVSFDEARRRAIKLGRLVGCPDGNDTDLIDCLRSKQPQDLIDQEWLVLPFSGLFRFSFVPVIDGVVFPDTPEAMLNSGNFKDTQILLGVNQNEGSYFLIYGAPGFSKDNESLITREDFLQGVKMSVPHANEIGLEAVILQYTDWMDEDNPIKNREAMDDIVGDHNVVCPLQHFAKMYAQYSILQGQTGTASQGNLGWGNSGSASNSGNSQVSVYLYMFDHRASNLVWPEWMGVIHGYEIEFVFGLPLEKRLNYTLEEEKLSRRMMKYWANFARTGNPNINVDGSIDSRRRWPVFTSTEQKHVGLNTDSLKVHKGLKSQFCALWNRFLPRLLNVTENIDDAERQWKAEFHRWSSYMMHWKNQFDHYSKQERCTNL

The experiment deals with Acetylcholinesterase (Electrophorus electricus, UniProt O42275). Description: Inhibition of Electrophorus electricus AChE. The gist of the method: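 Ellman-type spectrophotometric assay at 412 nm in 100 mM sodium phosphate, 100 mM NaCl, pH 7.3, with DTNB. Enzymes: E. electricus AChE (soluble G4), recombinant T. californica AChE (Pichia pastoris, G4), recombinant human AChE (HEK 293, G2/G4), human plasma BChE (G4). Enzyme (~3 U/mL stock) and inhibitor preincubated 15 min at 25 °C. Acetylthiocholine (AChE) or butyrylthiocholine (BChE) then started the reaction. IC50 in duplicate from ≥4 inhibitor concentrations.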

The pIC50 is −log10 of the IC50, conventionally taken in molar units. With `COc1cc(CCC(=O)NNc2c3c(nc4ccccc24)CCCC3)cc(OC)c1OC`, the pIC50 was 6.53.

The values are drawn from ChEMBL document CHEMBL1138205, “Novel heterobivalent tacrine derivatives as cholinesterase inhibitors with notable selectivity toward butyrylcholinesterase” (J Med Chem, 2006).
